The results in this text go back to paper PMC9762789, “Chromone-based monoamine oxidase B inhibitor with potential iron-chelating activity for the treatment of Alzheimer’s disease” (Journal of Enzyme Inhibition and Medicinal Chemistry, 2022).

Chains of the proteins cited; added tags and fusions are not shown.
UniProt P21397, whole entry: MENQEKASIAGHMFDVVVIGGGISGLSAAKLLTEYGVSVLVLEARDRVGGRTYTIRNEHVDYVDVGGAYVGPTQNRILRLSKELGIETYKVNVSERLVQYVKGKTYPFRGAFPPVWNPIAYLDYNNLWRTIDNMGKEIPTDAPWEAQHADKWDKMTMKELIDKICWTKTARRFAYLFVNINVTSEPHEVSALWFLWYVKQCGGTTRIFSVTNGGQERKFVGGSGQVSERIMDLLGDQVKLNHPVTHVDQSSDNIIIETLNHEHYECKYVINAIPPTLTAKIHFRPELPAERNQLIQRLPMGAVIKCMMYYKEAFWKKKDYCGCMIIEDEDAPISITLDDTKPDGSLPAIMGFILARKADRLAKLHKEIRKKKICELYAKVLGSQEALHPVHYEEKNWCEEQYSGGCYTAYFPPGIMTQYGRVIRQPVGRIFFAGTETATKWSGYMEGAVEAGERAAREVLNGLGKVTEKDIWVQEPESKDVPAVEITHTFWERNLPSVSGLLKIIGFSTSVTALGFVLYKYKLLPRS

This assay addresses T1, Human MAO-A (Homo sapiens, UniProt P21397).
T1 construct: purchased Sigma-Aldrich
The assay can be described thus: hMAO-A inhibition assay. The class given is biochemical. The procedure: Further, the inhibitory activity of compounds against hMAO-A isoform was tested and calculated as a selectivity index [Selectivity index (SI): IC50 (hMAO-A)/IC50 (hMAO-B)].
The reagents and enzymes (Human MAO-B and Human MAO-A) applied in this experiment were purchased from Sigma-Aldrich. According to the manuals, all components (substrate solution and enzyme solution) are diluted and placed aside for use. The detailed process has been mentioned in our early work[34].

A word on the IC50: it is the concentration at which inhibition is half-maximal. Higher therefore signals weaker potency in that assay. `C#CCN(C)Cc1ccccc1` [Pargyline] gave an IC50 of 4.184 ± 0.0071 µM.
